Results published in patent US20030147847A1 (IMMUNEX, published 2003).

By UniProt entry, the sequences of proteins in these tests, tags left out. Where a name states a change or a piece, a line headed by the entry shows the natural chain unless it says otherwise.
UniProt Q9UBK5: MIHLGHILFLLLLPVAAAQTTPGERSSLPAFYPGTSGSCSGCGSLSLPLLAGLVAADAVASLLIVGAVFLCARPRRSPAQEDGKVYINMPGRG

Tests used:
[1] = molecular target: T1, NKG2D alone on transfected 293 EBNA cells (UniProt P26718 1-216, limits assumed); test: flow cytometry, transfected 293 EBNA cells, 2 µg Fc protein + goat anti-human IgG PE
T1 construct: whole, on cells
T1 sequence (looked up): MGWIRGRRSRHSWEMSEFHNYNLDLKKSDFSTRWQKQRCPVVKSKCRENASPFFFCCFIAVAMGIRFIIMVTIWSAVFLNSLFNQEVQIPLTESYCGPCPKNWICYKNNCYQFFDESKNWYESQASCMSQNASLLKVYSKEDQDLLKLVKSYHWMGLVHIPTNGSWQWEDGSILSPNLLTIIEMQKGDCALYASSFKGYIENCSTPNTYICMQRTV

[2] = molecular target: T2, NKG2D/Dap10 on transfected 293E cells (UniProt P26718 1-216; Q9UBK5 19-93); test: as above
T2 construct: whole, on cells; Co-expressed on 293 EBNA (293E) cells from the pDC409 vector; also called NKG2D+FLAG tagged Dap10
T2 sequence 1: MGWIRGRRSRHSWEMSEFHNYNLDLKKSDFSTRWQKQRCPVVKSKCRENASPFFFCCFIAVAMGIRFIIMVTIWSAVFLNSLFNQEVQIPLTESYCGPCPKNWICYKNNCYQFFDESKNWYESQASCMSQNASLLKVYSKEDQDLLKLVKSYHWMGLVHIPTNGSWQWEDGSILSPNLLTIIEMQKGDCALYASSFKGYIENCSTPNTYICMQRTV
T2 sequence 2: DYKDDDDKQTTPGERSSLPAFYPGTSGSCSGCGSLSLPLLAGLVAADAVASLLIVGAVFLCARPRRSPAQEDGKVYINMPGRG

[3] = molecular target: T3, FLAG tagged Dap10 alone on transfected 293 EBNA cells (UniProt Q9UBK5 19-93); test: as above
T3 construct: whole, on cells
T3 sequence: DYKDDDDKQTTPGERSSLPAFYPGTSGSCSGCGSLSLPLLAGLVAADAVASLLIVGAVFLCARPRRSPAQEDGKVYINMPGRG

[4] = molecular target: T2, NKG2D/Dap10 on transfected 293E cells; test: flow cytometry; NKG2D/Dap10-transfected 293E cells preincubated with 25 µg hCD40L/LZ (control blocking protein)
[5] = molecular target: T2, NKG2D/Dap10 on transfected 293E cells; test: flow cytometry; NKG2D/Dap10-transfected 293E cells preincubated with 25 µg ULBP1/LZ (competitor)

B1: hCD40/Fc (Fc fusion, human, UniProt P25942 21-193, looked up)
chain: EPPTACREKQYLINSQCCSLCQPGQKLVSDCTEFTETECLPCGESEFLDTWNRETHCHQHKYCDPNLGLRVQQKGTSETDTICTCEEGWHCTSEACESCVLHRSCSPGFGVKQIATGVSDTICEPCPVGFFSNVSSAFEKCHPWTSCETKDLVVQQAGTNKTDVVCGPQDRLR
notes: Control Fc construct; not shown: Fc portion not described
- Mean Fluorescence Intensity (MFI) [1]: 10.7 MFI
- Mean Fluorescence Intensity (MFI) [2]: 13.3 MFI
- Mean Fluorescence Intensity (MFI) [3]: 15.6 MFI
- Mean Fluorescence Intensity (MFI) [4]: 35 MFI
- Mean Fluorescence Intensity (MFI) [5]: 12 MFI
